Our source for the IC50 and Ki values is patent publication US6872827B2, “Somatostatin analogue compounds” (Chembridge Research Laboratories, Inc., priority 2002, dated 2005).

Protein sequences, listed by entry. Tags and fused reporters are not part of them. Lines headed by an entry give the natural chain unless they say otherwise; changes in a name come on top.
UniProt P31391: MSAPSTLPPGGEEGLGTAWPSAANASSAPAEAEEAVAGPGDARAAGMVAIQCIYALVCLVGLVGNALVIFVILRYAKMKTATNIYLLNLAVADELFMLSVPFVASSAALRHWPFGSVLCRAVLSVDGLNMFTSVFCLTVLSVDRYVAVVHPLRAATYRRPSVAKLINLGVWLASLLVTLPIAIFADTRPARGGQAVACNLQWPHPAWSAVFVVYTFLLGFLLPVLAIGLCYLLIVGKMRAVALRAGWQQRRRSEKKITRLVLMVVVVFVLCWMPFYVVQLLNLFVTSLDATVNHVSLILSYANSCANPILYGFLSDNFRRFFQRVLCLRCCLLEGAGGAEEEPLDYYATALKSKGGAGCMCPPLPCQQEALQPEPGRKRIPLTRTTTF
UniProt P32745: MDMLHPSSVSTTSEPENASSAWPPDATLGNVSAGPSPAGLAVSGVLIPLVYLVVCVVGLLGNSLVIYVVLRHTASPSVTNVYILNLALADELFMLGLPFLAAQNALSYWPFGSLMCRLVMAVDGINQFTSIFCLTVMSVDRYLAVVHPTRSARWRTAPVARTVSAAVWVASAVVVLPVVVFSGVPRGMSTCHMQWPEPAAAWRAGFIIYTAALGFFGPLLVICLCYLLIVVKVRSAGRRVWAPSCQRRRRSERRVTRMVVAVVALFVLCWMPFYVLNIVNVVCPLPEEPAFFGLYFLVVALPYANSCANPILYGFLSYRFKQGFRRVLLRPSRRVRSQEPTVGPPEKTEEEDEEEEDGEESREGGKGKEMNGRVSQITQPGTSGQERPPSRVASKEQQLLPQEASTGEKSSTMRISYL
UniProt P30872: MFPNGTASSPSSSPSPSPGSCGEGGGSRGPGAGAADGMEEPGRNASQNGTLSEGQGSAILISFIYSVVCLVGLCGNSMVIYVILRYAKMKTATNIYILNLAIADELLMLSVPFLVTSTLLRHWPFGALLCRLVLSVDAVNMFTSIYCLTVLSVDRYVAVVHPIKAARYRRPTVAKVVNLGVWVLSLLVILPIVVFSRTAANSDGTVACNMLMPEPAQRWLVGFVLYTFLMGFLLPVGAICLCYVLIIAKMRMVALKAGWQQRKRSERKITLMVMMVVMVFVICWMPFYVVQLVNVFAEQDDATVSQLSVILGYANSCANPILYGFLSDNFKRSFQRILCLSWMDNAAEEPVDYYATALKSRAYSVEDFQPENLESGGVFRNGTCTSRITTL

Holding throughout (settings): Table 4
In one experiment the target is T1, Somatostatin sst4 (Homo sapiens, UniProt P31391).
T1 construct: host or cells: CHO-K1
Kind of experiment: Somatostatin sst4 radioligand binding assay. As for the experimental part:
(§1) Compounds of the present invention were assessed for their binding affinity to sst1, sst3, and sst4 receptors by biochemical and radioligand assay according to the following procedures. The assays were conducted by MDS Pharma Services—Taiwan Ltd., Pharmacology Laboratories, 158 Li-The Road, Peitou, Taipei, Taiwan 112, R.O.C.
The protocol for sst4 assay was adapted from Patel, Y. C. and Srikant, C. B. (1994) “Subtype selectivity of peptide analogs for all five cloned human somatostatin receptors (hsstr 1-5).” Endocrinology 135 (6): 2814-2817, 1994. The protocol were and can be conducted according to the following conditions.
(§2) IC50 values were determined by a non-linear, least squares regression analysis using Data Analysis Toolbox™ (MDL Information Systems, San Leandro, Calif., USA). Where inhibition constants (Ki) are presented, the Ki values were calculated using the equation of Cheng and Prusoff (Cheng, Y., Prusoff, W. H., Biochem. Pharmacol. 22:3099-3108, 1973) using the observed IC50 of the tested compound, the concentration of the radioligand employed in the assay, and the historical values for the Kd of the ligand (obtained experimentally at MDS Pharma Services). Where presented, the Hill coefficient (nH), defining the slope of the competitive binding curve, was calculated using Data Analysis Toolbox™. […] Where IC50, Ki and/or nH data are presented without Standard Error of the Mean (SEM), data are insufficient to be quantitative, and the values presented (Ki, IC50, nH) should be interpreted accordingly.

Another experiment concerns the target T2, Somatostatin sst 3 (Homo sapiens, UniProt P32745).
T2 construct: host or cells: CHO-K1
Kind of experiment: Somatostatin sst3 radioligand binding assay. As for the experimental part: as §1
The protocol for sst3 assay was adapted from Liapakis, G., Fitzpatrick, D., Hoeger, C., Rivier, J., Vandlen, R. and Reisine, T. (1996) “Identification of ligand binding determinants in the somatostatin receptor subtypes 1 and 2.”J. Biol. Chem. 271(24): 20331-20339, 1996; and Patel, Y. C. and Srikant, C. B. (1994) “Subtype selectivity of peptide analogs for all five cloned human somatostatin receptors (hsstr 1-5).” Endocrinology 135 (6): 2814-2817, 1994. The protocol were and can be conducted according to the following conditions.
as §2

The target of the next experiment is T3, Somatostatin sst1 (Homo sapiens, UniProt P30872).
T3 construct: host or cells: CHO-K1
Kind of experiment: Somatostatin sst1 radioligand binding assay. As for the experimental part:
as §1
The protocol for sstl assay was adapted from Liapakis, G., Fitzpatrick, D., Hoeger, C., Rivier, J., Vandlen, R. and Reisine, T. (1996) “Identification of ligand binding determinants in the somatostatin receptor subtypes 1 and 2.”J. Biol. Chem. 271(24): 20331-20339, 1996; and Patel, Y. C. and Srikant, C. B. (1994) “Subtype selectivity of peptide analogs for all five cloned human somatostatin receptors (hsstr 1-5).” Endocrinology 135 (6): 2814-2817, 1994. The protocol were and can be conducted according to the following conditions.
as §2

“7-(4-methoxy-phenoxy)-3,4-dihydro-2H-quinoline-1-(4-aminobutyl-1-yl-)-4-spiro-5′-1′-methy-3′-[2-(1H-indol-3-yl-ethyl]-imidazoline-2′4′-dione [G]”: the IC50 was 3870 nM at Somatostatin sst4, 6610 nM at Somatostatin sst 3 and 4110 nM on Somatostatin sst1. Moreover, the results for the Ki on Somatostatin sst4, on Somatostatin sst 3 and at Somatostatin sst1 were 3400 nM, 5870 nM and 3900 nM, respectively.

Regarding “7-Phenoxy-3′-4′-dihydro-2H-quinoline 1-(methylpiperidine-4-yl)-4-spiro-5′-1′-(1H-indole-3yl-methyl)-3′-methyl-imidazoline-2′-4′-dione”, the concentration for half-maximal inhibition (IC50) turned out to be 1590 nM at Somatostatin sst4, 1530 nM on Somatostatin sst 3 and 1860 nM at Somatostatin sst1. The results for the Ki on Somatostatin sst4, at Somatostatin sst 3 and on Somatostatin sst1 were 1400 nM, 1360 nM and 1770 nM, respectively.
